# Laboratory results reported in patent US10328110B2, “Pharmaceutical composition for promoting bone tissue formation, containing Stauntonia hexaphylla leaf extract as active ingredient” (Jeonnam Bioindustry Foundation, priority 2013, dated 2019).
# Test system: C2C12 cells as osteoblast stem cells
# Test: AP activity site staining using an NBT/BCIP substrate (osteoblast differentiation degree)
# Type: cell-based
# Details: BMP-2 10 ng/ml alone (positive control), compared to control group not treated with BMP-2 and the sample
# Protocol: C2C12 cells as osteoblast stem cells were aliquoted to a 48 well plate in a number of 5×10^4 cells/well and cultured in α-MEM essential medium, as cell growth medium, containing 10% of FBS and 0.1% of p/s for three days. Three days later, the medium was changed with α-MEM essential medium including 1% horse serum and 0.1% p/s in order to induce osteoblast differentiation. Subsequently, the cells were treated with 10 ng/ml of BMP-2 (bone morphogenic protein-2), and samples were simultaneously treated in a concentration-dependent manner, followed by culturing for five days.
# In the present invention, groups were classified into a positive control treated with BMP-2 (10 ng/ml) as an osteoblast differentiation inducer, an experimental group treated with ethyl acetate fractions from stauntonia hexaphylla leaf hot-water extract (5, 10 ug/ml) alone and a non-treated control group none-treated, osteoblast differentiation degrees thereof were respectively measured through AP activity site staining using an NBT/BCIP substrate.
# In particular, media of cells cultured for five days were removed and the cells were washed with 1× PBS three times. The cells were fixed at room temperature for 15 minutes by means of a 10% formalin solution and washed with 1× PBS three times to remove a formalin remainder. […]
molecule,measurement,value
"BMP-2: bone morphogenic protein-2, osteoblast differentiation inducer used as positive control (protein, UniProt P12643 283-396, looked up) Bone morphogenetic protein 2: QAKHKQRKRLKSSCKRHPLYVDFSDVGWNDWIVAPPGYHAFYCHGECPFPLADHLNSTNHAIVQTLVNSVNSKIPKACCVPTELSAISMLYLDENEKVVLKNYQDMVVEGCGCR",NBT/BCIP staining of AP activity sites,more stained
